Laboratory results taken from ChEMBL document CHEMBL1126124, “3-Phenyl-4-hydroxyquinolin-2(1H)-ones: potent and selective antagonists at the strychnine-insensitive glycine site on the N-methyl-D-aspartate receptor complex” (J Med Chem, 1992).
pIC50, pKi: −log10 of the molar value.

Assays:
[1] = target: T1, Glutamate receptor ionotropic, NMDA 1 (Rattus norvegicus, UniProt P35439); assay: Inhibition of [3H]-MK-801 binding to a N-methyl-D-aspartic acid(NMDA) receptor in glycine-sensitive rat cortical membranes.; format: cell membranes, Membrane
How it was run: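 Well-washed rat cortical membranes were given an added freeze/thaw step. [³H]MK-801 (2.5 nM) binding was run with 1 μM glutamate and 0.2 μM glycine for 2 h at 27 °C, then stopped by filtration. Nonspecific binding was defined with 0.5 μM MK-801. Values are IC50.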

[2] = target: T1, Glutamate receptor ionotropic, NMDA 1; assay: Ability to displace strychnine-insensitive [3H]glycine binding to rat cortical membranes.
How it was run: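 Rat cortical membranes were prepared by a freeze/thaw Triton extraction. Incubation used [³H]glycine with 25 μg membrane fragments on ice for 1 h, ended by rapid filtration through GF/B filters. Nonspecific binding was defined with 100 μM D-serine.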

pIC50 [1]: 4.40
pKi [2]: 5.27
SMILES: O=C(O)c1cc(=O)c2ccccc2[nH]1 [TRANSTORINE]
